The entries are a selection whose mix differs from that of the whole data set. Active and inactive are the calls of the source.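 Rule for the calls: active = compounds that cut the protein-peptide binding signal by more than 50% relative to plate controls in a single-dose test; inactive = the rest.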
The compounds below were run against Induced myeloid leukemia cell differentiation protein Mcl-1 (Homo sapiens) (UniProt Q07820) (assay: disruptors of Mcl-1 and Noxa BH3 peptide – biochemical, TR-FRET, 1536-well, primary screen (AID 1022;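 note: His-tagged Mcl-1 with rhodamine Noxa BH3 peptide and terbium anti-His antibody; 0% = Mcl-1 plus Noxa peptide wells and 100% = peptide-only wells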)). Details: TR-FRET Mcl-1/Noxa peptide binding, 2 h; at 21.7 µM; active compounds read high.

Protein sequences, listed by entry. Tags and fused reporters are not part of them.
UniProt Q07820, whole entry: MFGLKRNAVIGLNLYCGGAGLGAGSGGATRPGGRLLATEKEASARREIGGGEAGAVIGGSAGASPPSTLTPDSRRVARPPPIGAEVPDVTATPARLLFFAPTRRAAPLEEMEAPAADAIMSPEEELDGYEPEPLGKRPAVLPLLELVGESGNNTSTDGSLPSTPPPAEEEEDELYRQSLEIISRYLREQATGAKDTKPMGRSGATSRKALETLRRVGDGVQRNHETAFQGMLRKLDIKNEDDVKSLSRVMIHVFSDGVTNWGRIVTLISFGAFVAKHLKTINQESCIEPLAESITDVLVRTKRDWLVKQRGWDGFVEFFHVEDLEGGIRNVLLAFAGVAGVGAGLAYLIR

| SMILES | inhibition |
| --- | --- |
| CN(C(=O)Cc1ccc(Cl)c(Cl)c1)[C@@H]1CCCC[C@H]1N1CCCC1 | inactive: 5.79% |

Reference: PubChem BioAssay AID1022 (Emory University Molecular Libraries Screening Center, 2008)
